The values that follow are results of earlier work, collected in patent US20250085295A1, “METHODS FOR MEASURING INTERACTIONS BETWEEN PROTEINS COMPRISING AN FC PORTION AND PARTICLES” (NANOTEMPER TECHNOLOGIES GMBH, priority 2023, published 2025).

The data set has as its target IgA antibody. The settings on record: literature DOI cited; read-out: affinity of Fc-binding peptide to IgA antibody; cited from earlier work.

HMVCLAYRGRPVCFAL: the Kd was 33 nM.
Consider HMVCLSYRGRPVCFSL, for which the Kd is 16 nM.
